{"sequences": {"note": "By UniProt entry, the sequences of proteins in these tests, tags left out. Residues count along the entry.", "UniProt P08254, 100-272 limits assumed": "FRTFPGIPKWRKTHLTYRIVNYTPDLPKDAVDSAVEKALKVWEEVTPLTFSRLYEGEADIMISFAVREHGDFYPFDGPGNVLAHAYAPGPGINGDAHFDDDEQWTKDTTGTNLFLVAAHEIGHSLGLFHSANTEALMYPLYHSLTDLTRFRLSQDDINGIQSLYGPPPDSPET", "UniProt P22894, 100-262 limits assumed": "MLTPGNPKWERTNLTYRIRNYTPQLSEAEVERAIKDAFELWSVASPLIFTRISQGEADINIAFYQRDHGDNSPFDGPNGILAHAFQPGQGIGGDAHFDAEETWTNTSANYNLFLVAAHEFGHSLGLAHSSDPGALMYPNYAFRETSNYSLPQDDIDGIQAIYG"}, "source": "patent US6815440B2", "about": "“Cyclic and heterocyclic N-substituted α-iminohydroxamic and -carboxylic acids” (Aventis Pharma Deutschland GmbH, priority 1995, dated 2004)", "key": {"[1]": {"target": "catalytic domain of stromelysine-1 (Homo sapiens, UniProt P08254)", "assay": "Proteoglycan degradation assay (bovine aggrecan, ELISA with antibody 5-D-4)", "conditions": "read-out: Proteoglycane degradation IC50; bovine nasal proteoglycane, 60 ng stromelysine-1 catalytic domain, MES pH 6.0, RT 3 h"}, "[2]": {"target": "catalytic domain of human stromelysine (Homo sapiens, UniProt P08254)", "assay": "Enzyme inhibition, catalytic domain of human stromelysine (fluorogenic substrate)", "conditions": "read-out: Stromelysine IC 50; hydroxamic acids up to and including Example 33; tris/HCl buffer pH=7.5"}, "[3]": {"target": "catalytic domain of neutrophil collagenase (Homo sapiens, UniProt P22894)", "assay": "Enzyme inhibition, catalytic domain of neutrophil collagenase (fluorogenic substrate)", "conditions": "read-out: Neutrophil collagenase IC 50; hydroxamic acids up to and including Example 33; tris/HCl buffer pH=7.5"}}}
{"smiles": "COc1ccc(S(=O)(=O)N2Cc3cc(O)ccc3C[C@@H]2C(=O)NO)cc1", "values": [{"measurement": "IC50", "setting": "[1]", "value": 130, "unit": "nM"}, {"measurement": "IC50", "setting": "[2]", "value": 10, "unit": "nM"}, {"measurement": "IC50", "setting": "[3]", "value": 1, "unit": "nM"}]}
